{"source": "paper PMC6929975", "about": "“A supramolecular protein chaperone for vaccine delivery” (Theranostics, 2020)", "key": {"[1]": {"tested_on": "splenocytes", "conditions": "80 µg/mL"}, "[2]": {"tested_on": "Raw 264.7 mouse macrophages", "conditions": "80 µg/mL"}}}
{"substance": "Fbp-G^DF^DF^DY [Comp. 2]", "values": [{"measurement": "cell viability, splenocytes", "setting": "[1]", "value": "did not remarkably reduce the cell viability"}, {"measurement": "cell viability, Raw 264.7", "setting": "[2]", "value": "did not remarkably reduce the cell viability"}]}
